# scFv variants of Ab-14 (heavy chain) against a SARS-CoV-2 spike peptide

From the AlphaSeq antibody data of Li et al. 2023 (doi:10.1038/s41467-023-39022-2), copy in the FLAb collection.

The target is the same throughout: PDVDLGDISGINAS, from the HR2 region of SARS-CoV-2 spike.

Ab-14 is the parent antibody, in scFv form: VH, then three GGGGS repeats, then VL. The light chain is unchanged in all variants.
VH: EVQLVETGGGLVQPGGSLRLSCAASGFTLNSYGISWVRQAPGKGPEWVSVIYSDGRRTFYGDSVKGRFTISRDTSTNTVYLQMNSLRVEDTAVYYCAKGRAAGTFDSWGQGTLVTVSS
VL: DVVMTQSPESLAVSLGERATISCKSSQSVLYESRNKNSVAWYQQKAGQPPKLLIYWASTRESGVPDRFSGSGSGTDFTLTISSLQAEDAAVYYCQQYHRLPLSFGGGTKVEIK

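The starting antibody came from a phage panning campaign against this peptide. Designed CDR sequences, proposed from the first random library and measured here. Group labels follow the data file (Ctrl: baseline library sampled from a position-specific scoring matrix, with some repeated check sequences; GPLM: also part of the Gaussian process libraries; HC: hill climbing; a sequence that several methods proposed may carry one label only). The scFvs were displayed on barcoded MATa yeast, the peptide on MATalpha yeast. Mating (16 h, 30 °C) was followed by selection of diploids and sequencing of their barcodes. A regression on co-assayed BCL2-family reference pairs converts the normalised counts of each replicate to an apparent Kd. The assay was run in six technical replicates.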

Each variant is given by its three heavy chain CDRs, as the data file delimits them; those of the parent are GFTLNSYGIS, VIYSDGRRTFYGDSVK, GRAAGTFDS.
The read-out is the apparent dissociation constant on a log10 scale (nM): the lower, the stronger.
Where no diploid with the target was found in that replicate, the entry reads "n.d.": below detection, most likely a poor binder, though not proof of it.
The range of this assay differs from that of the first round, and the authors advise against merging the two.

CDR-H1,CDR-H2,CDR-H3,group,"log10 Kd, replicates",control signals
GFQLNSYGIS,VIYSDGRRTFYADSVK,GRAAGTKDS,Ctrl,n.d. / n.d. / n.d. / n.d. / n.d. / n.d.,0/18
HFTLNEYGIS,VIYSDGRRTFYGDSVK,GRAIGTFDS,Ctrl,n.d. / n.d. / n.d. / n.d. / n.d. / n.d.,0/18
GFTLNSYGIS,VIYADGRRTFYGDSVK,GRAAGTFLS,Ctrl+GPLM_HC,n.d. / n.d. / n.d. / n.d. / n.d. / n.d.; n.d. / n.d. / n.d. / n.d. / n.d. / n.d.,0/36
GFTLNSYGGS,VIYADGIRTFYGDSVK,GRAAGTFDS,Ctrl,n.d. / n.d. / 1.47 / n.d. / n.d. / n.d.,0/18
GFSLDSYGIS,VIYSDGRRTFYTDDVK,GRAAGTFDS,Ctrl,0.19 / 0.06 / 0.06 / 0.19 / 0.14 / 0.18,1/18 (2.57)
GFNLNSYGIS,VIYADGRRTWYGDSVK,GRAAGTFKS,Ctrl,n.d. / 1.23 / 2.23 / 2.47 / 2.96 / 2.00,0/18
GFTLNEYGIS,VIYSDGRRTFMGDSVK,GMAAGTFDS,Ctrl,0.70 / n.d. / n.d. / n.d. / n.d. / n.d.,0/18
GFGLNSYGIS,VIYSDGRRTFYADSVK,GEAAGTMDS,Ctrl,1.68 / n.d. / n.d. / n.d. / n.d. / 2.09,0/18
GFTLNSYGIS,VIYSDGRKTFYGDSVK,GRAAGQFDS,Ctrl,n.d. / n.d. / n.d. / n.d. / n.d. / n.d.,0/18
GFSLNSYGIS,VIYSDGEKTFYGDDVK,GNCAGTFPS,Ctrl,n.d. / n.d. / n.d. / n.d. / n.d. / n.d.,0/18
GFTLNEYGIS,GIYSDGFRTFYGDSVK,IRAAGTFDS,Ctrl,n.d. / n.d. / n.d. / n.d. / n.d. / n.d.,0/18
GFTLNSYGIS,VIYSDGERTFYHDSVK,GRAQGPFDY,Ctrl,n.d. / n.d. / n.d. / n.d. / n.d. / n.d.,0/18
GETLNSYGIS,VIYSDGRRTFYQDSVK,GRAAGTFDS,Ctrl,2.54 / 1.26 / 1.49 / 1.30 / 2.69 / 1.44,0/18
GFNLNSYGIS,VIYSDGRRTFYGDSVK,GAAQGTFDS,Ctrl,n.d. / n.d. / n.d. / n.d. / n.d. / n.d.,1/18 (2.76)
GFTLNNYGIS,VIYSDGRRTFYGDSVV,QWAAGTFDK,Ctrl,n.d. / n.d. / n.d. / n.d. / n.d. / n.d.,0/18
GFTLNSYGIS,VIYADGRRTFYGDSVK,GRNAGTSDT,Ctrl,n.d. / n.d. / n.d. / n.d. / 4.19 / n.d.,0/18
GFGLNSFGIS,VIYSDGRRTFYGDSVK,RRAAGTFDS,Ctrl,n.d. / n.d. / n.d. / n.d. / n.d. / n.d.,0/18
GFTCNSYGIS,VIYSDGRRTFYGDSVK,GRYDGTFDS,Ctrl,n.d. / n.d. / n.d. / n.d. / n.d. / n.d.,0/18
GFELNSYGIS,VIYSDGWRTFYVDSFK,GRAAGTFDS,Ctrl,n.d. / n.d. / n.d. / n.d. / n.d. / n.d.,0/18
GFNLNSYGIS,VIYSDGRRTFYMDSVK,GRVAGTFDS,Ctrl,n.d. / 1.02 / n.d. / n.d. / n.d. / 1.48,0/18
GFTLNSYGIS,VIYADGVRTFYGDSVK,GTAAGTFDS,Ctrl,-0.26 / -0.59 / -0.17 / 0.35 / -0.57 / -0.29,0/18
GFTLESYGIS,VIYSDGTRVFYGDSVK,GRAAGTFDL,Ctrl,n.d. / n.d. / n.d. / n.d. / n.d. / n.d.,0/18
GFSLNSYGIS,VIYSDGKRTFYADSVK,TRAAGTFDS,Ctrl,n.d. / n.d. / n.d. / n.d. / n.d. / n.d.; n.d. / n.d. / n.d. / n.d. / n.d. / n.d.; n.d. / n.d. / n.d. / n.d. / n.d. / n.d.; n.d. / n.d. / n.d. / n.d. / n.d. / n.d.; n.d. / n.d. / n.d. / n.d. / n.d. / n.d.,1/90 (2.84)
TFNLNDYGIS,VIYSDGERTFYGDSVK,GRAAGTFDS,Ctrl,n.d. / n.d. / n.d. / n.d. / n.d. / n.d.,0/18
GFTLNSYGIS,VIYSDGRRTFYADSVK,GRAAGTFDD,Ctrl,0.75 / 0.97 / 1.71 / 0.74 / 0.70 / 0.55,0/18
GFTLNSYGIS,VIYSDGRRTFYGDSVK,GRQAGTFIS,Ctrl,n.d. / n.d. / n.d. / n.d. / n.d. / n.d.,0/18
GFTLLSYGIS,VIYSDGRRTFYGDQVK,GRAASTFDS,Ctrl,n.d. / n.d. / n.d. / n.d. / n.d. / n.d.,0/18
GFTLNSYGIS,VIYSDGRRTMYGDDVK,GKAAGTFDS,Ctrl,1.67 / 2.80 / n.d. / 2.52 / 2.54 / 1.53,0/18
GFTLNSYGIS,VIYSDGRRTFYGDSVK,GRMAGTFDS,Ctrl,1.94 / 1.85 / n.d. / n.d. / 1.93 / 2.25,0/18
GLTLNSYGIS,VIYSDGRRNFYDDSVK,GNAAGTFDS,Ctrl,1.75 / n.d. / n.d. / n.d. / n.d. / n.d.,0/18
GFTLNKYGIS,VIYSDGLRTFYGDSVK,GRAAGTTDS,Ctrl,n.d. / n.d. / n.d. / n.d. / n.d. / n.d.,0/18
GFTLNTYGIS,VIYSDGRRTFYGDSVK,GRAAGTFDS,Ctrl,n.d. / n.d. / 1.69 / n.d. / 1.77 / n.d.,0/18
GATLDSYGIS,VIYSDGRRTFYGDSVK,GRVAGTFDV,Ctrl,1.93 / 0.47 / 1.43 / n.d. / n.d. / 2.14,0/18
GFTLNSYGIS,VIYSDGRRTFYLDSVK,GRAQGTFVS,Ctrl,n.d. / n.d. / n.d. / 2.00 / n.d. / n.d.,1/18 (2.65)
GFTLNEYGIS,VIYADGRRTFYHDSVK,GWAAGTFDS,Ctrl,0.44 / 0.52 / 0.25 / 0.17 / 0.86 / 1.34,0/18
GFTLNSYGIS,VIYSDGRRTAYGDSVK,GRVAGTFDS,Ctrl,0.51 / 0.75 / 1.26 / 1.42 / 1.06 / 0.37,0/18
GFTLLDYGIS,VIYSDGRRTFYVDSVK,GRAAGTFDS,Ctrl,1.88 / 2.95 / 2.95 / 3.24 / n.d. / n.d.,0/18
GFTLNSYGIS,VIYSDGKRTIYGDSVK,GRHAGTMPS,Ctrl,n.d. / n.d. / n.d. / 2.05 / n.d. / n.d.,0/18
LFTLNSYGIS,VIYSDGRRTFYGDSVK,GLEAGTYDS,Ctrl,n.d. / n.d. / n.d. / n.d. / n.d. / n.d.,0/18
GFGLNSYGIS,VIYSDGMRTFYGDSVK,GRAAGTSDE,Ctrl,n.d. / n.d. / n.d. / n.d. / 3.74 / n.d.,1/18 (1.74)
GFTLNSYGIS,VIYADGRRTFYGDSVK,RRAAGSTDS,Ctrl,n.d. / n.d. / n.d. / n.d. / n.d. / n.d.,0/18
GFTLNSYGIS,VIYADGRRTFYGDSVK,WRAAGLFDS,Ctrl,n.d. / n.d. / n.d. / n.d. / n.d. / n.d.,0/18
GFAINSYGIS,VIYSDGRRTFYGDSVK,GRAAGTFDS,Ctrl,0.77 / n.d. / n.d. / n.d. / n.d. / 1.83,0/18
GFDLNSYGIS,VIYSDGRRTFYTDSVK,GRLAGGYDS,Ctrl,n.d. / n.d. / n.d. / 1.67 / n.d. / n.d.,0/18
GFTLNSYGIS,VIYADGHRTFYGDSVK,GRIAGTFDS,Ctrl,0.05 / -0.06 / -0.17 / 0.28 / 0.07 / 0.46,0/18
GFWLNSYGIS,VIYSDGLRTFYGDSVK,GRAAGTFDS,Ctrl,n.d. / n.d. / n.d. / n.d. / n.d. / n.d.,0/18
GFTLNSYGIS,VIYSDGLRTFYGDSVK,GRRAGTFDS,Ctrl,1.29 / 2.00 / 2.71 / 2.16 / 2.19 / 2.26,1/18 (3.69)
GFRLNSYGIS,VIYSDGWRVFYGDSVK,GQAAGTFDL,Ctrl,n.d. / n.d. / n.d. / n.d. / 1.69 / n.d.,1/18 (1.88)

Again, the first 3 entries without any signal:

CDR-H1	CDR-H2	CDR-H3	group	log10 Kd, replicates	control signals
GFQLNSYGIS	VIYSDGRRTFYADSVK	GRAAGTKDS	Ctrl	n.d. / n.d. / n.d. / n.d. / n.d. / n.d.	0/18
HFTLNEYGIS	VIYSDGRRTFYGDSVK	GRAIGTFDS	Ctrl	n.d. / n.d. / n.d. / n.d. / n.d. / n.d.	0/18
GFTLNSYGIS	VIYADGRRTFYGDSVK	GRAAGTFLS	Ctrl+GPLM_HC	n.d. / n.d. / n.d. / n.d. / n.d. / n.d.; n.d. / n.d. / n.d. / n.d. / n.d. / n.d.	0/36

Some sequences occur more than once in the pool; their replicates are listed entry by entry, parted by semicolons.
Three control strains display no target. For all heavy chain designs, 1% of the pairings with them gave a signal, with a median of 2.08 and one signal in twenty below 0.84, so weak values seen in few replicates may be background. Also given: how often the same scFv was detected with the empty control strains, with their mean in brackets.
In the paper, a design with two or fewer of six values counts as a poor binder.